For test [1], the system named is histone acetyltransferase (HAT). Nature of the test: HAT activity in lysates of treated cells.
Test [2] concerns Ifngr2, Tap1 and Psmb8 promoters. In words: ChIP analysis of promoters.
Another test deals with p300/CBP. In words: p300 immunoblot and imaging. The following applies: for nuclear foci / nucleolar localization of p300: high resolution imaging. Type of test: cell-based, mouse. A general note: A western blot detects proteins with antibodies after separation by electrophoresis.

The record followed here is US20210386828A1, “METHODS FOR ENHANCING CANCER IMMUNOTHERAPY” (The Regents of the University of California, priority 2018, published 2021).

Take `O=C1[O][Pt]2([NH][C@@H]3CCCC[C@H]3[NH]2)[O]C1=O` [Oxali, oxaliplatin]: in test [1], the “stimulation of HAT activity at 2 μM versus 4 μM” value is on record as “greater stimulation of HAT activity than at 4 μM”. For the same molecule, in test [2], the “p65/NF-κB recruitment to the Ifngr2 promoter” value is given as “enhanced”; the “p300 recruitment to Ifngr2 and Tap1 promoter” value was “increased”. Besides, in the test with p300/CBP (Myc-CaP cells), the “nuclear amount of p300 and acetylated p300/CBP” value was “increased the amount of total EP300 and acetylated p300/CBP in nuclei”. Further, the “nuclear foci / nucleolar localization of p300” value with p300/CBP is recorded as “induced the formation of nuclear foci containing p300”.
`Cc1[nH]c2ccccc2c1CCNCc1ccc(/C=C/C(=O)NO)cc1` [Panabinostat]: the “nuclear foci / nucleolar localization of p300” value in the test with p300/CBP is listed as “only led to an increased amount of nuclear p300 but not nucleolar infiltration”.
